{
  "source": "patent EP4603108A1",
  "about": "“HUMAN SERUM ALBUMIN BASED NANOCARRIERS FOR TARGETED IMMUNOTHERAPY” (Max-Planck-Gesellschaft zur Förderung der Wissenschaften …, priority 2024, dated 2025)",
  "key": {"[1]": {"test_system": "CHO^MMR+ cells", "test": "Cell uptake by confocal microscopy", "format": "cell-based, chinese hamster", "conditions": "1µM for 24 hours", "experimental": "(§1) CHO cells were obtained from Prof. Lutz Nuhn. These cells were transfected as described in Martinez-Pomares et al., 2003, Journal of Leukocyte Biology (73), 604-613.\nCHO^MMR+ cells were incubated with ^SCy5HSA-(TM)34.1 1µM for 24 hours and then analysed at confocal microscopy."}, "[2]": {"test_system": "CHO^MMR+", "test": "Cell uptake by FACS / flow cytometry, MMR-positive cells", "format": "cell-based, chinese hamster", "conditions": "24h, 0.1 µM", "from_the_text": "as §1\n(§2) Uptake Efficiency correlated positively with amount of TM on HSA surface. HSA without trimannose (Ctrl) was not uptaken in neither cell line (Figure 11).\n(§3) Increased TM-Amount on HSA correlates positively with increased uptake. 3-10 TM groups / HSA were sufficient for this transfected cell line. For further studies the inventor still chose >30 TM groups/HSA because a) they stabilize the carrier during denaturation for loading procedure due to hydrophilicity b) they support backfolding after drug loading (hydrophilic parts outside)."}, "[3]": {"test_system": "CHO-K1 cells (MMR-)", "test": "Cell uptake by FACS / flow cytometry, MMR-negative cells", "format": "cell-based, chinese hamster", "conditions": "24h, 0.1 µM", "from_the_text": "as §2, §3"}, "[4]": {"test": "Dynamic light scattering (DLS) size determination", "format": "physicochemical", "conditions": "1 mg/mL, 25 °C, PBS or MQ (volume distribution in PBS used)", "experimental": "DLS measurements of the compounds (1mg/mL in PBS or MQ) were performed at 25 °C using a Malvern ZetaSizer Nano S purchased from Malvern Instruments Ltd. (Malvern, Great Britain) with a He/Ne Laser (λ = 633 nm) and a narrow band filter at a fixed scattering angle of 173°. Volume distribution of DLS measurements of nanocarriers in PBS was used to determine their size range."}, "[5]": {"test_system": "GM-CSF differentiated BMDC", "test": "FACS analysis of uptake by GM-CSF differentiated BMDC", "format": "cell-based, Murine", "conditions": "incubated on ice at 1 nM and 10 nM, n=1", "experimental": "Graphs show uptake after overnight incubation in various primary cells. \"DBCO: 40\" (^Cy5HSA-(DBCO)40) serves as positive control for unspecific uptake because a) DBCO groups can intercalate into the cell membrane and promote thereby cell internalization and b) so far we can only convert 80% of DBCO groups in the Click reaction with the TM - Therefore, some \"free\" DBCO groups are always existent, even though it is likely that they are buried within hydrophobic pockets of HSA since they are not reacting with N3-TM.\nSaturation of TM-mediated uptake from around 20 TM/HSA on. Concentration series uptake (top right) confirms saturation of cells since no increased uptake is observed in increased concentrations.\n(A,B) GM-CSF- or (C-E) FLT3L-differentiated BMDC were incubated with nanocarriers or R848 (1 µg/ml) o.n., stained and subjected to flow cytometric analyses. GM-CSF differentiated BMDC were discriminated as follows: FVD^-CD11c^+. FLT3L-differentiated cells were discriminated as described in Fig. 18-20. n=4. (A) MFI of surface activation marker CD86 expression. (B-E) MFI of Cy5 signal (nanocarrier binding or uptake). […]\nFlow cytometry. […] Following this, samples were incubated with fluorescence-labeled antibodies (20 min, 4 °C). […] Measurements were carried out using an Attune NxT flow cytometer and data were analyzed using Attune NxT software (both Thermo Fisher, Waltham, MA, USA)"}, "[6]": {"test": "Fluorescence correlation spectroscopy (FCS), hydrodynamic radius in water and blood plasma", "format": "physicochemical", "conditions": "for increase in hydrodynamic radius after incubation in blood plasma: indicates no major protein corona formation"}},
  "data": [
    {"substance": "^Cy5HSA-(TM)34.1: dye-labeled HSA with TM groups clicked to the DBCO on the surface (dye-labeled mannosylated HSA), about 34 TM per HSA", "values": [
      {"measurement": "uptake (red fluorescence signal)", "setting": "[1]", "value": "efficiently uptaken"}
    ]},
    {"substance": "^Cy5HSA: Sulfo-Cy5 labeled HSA with ring-opened maleimide, without trimannose and without cargo (control)", "values": [
      {"measurement": "uptake (Cy5 fluorescence)", "setting": "[2]", "value": "not uptaken"},
      {"measurement": "uptake (Cy5 fluorescence)", "setting": "[3]", "value": "not uptaken"}
    ]},
    {"substance": "TM-^Cy7.5HSA-Benzyl: Sulfo-Cy7.5 labeled HSA with TM on the surface, decoy-loaded and backfolded; Benzyl-HSA = 12 : 1", "values": [
      {"measurement": "sizes (d.nm), volume distribution", "setting": "[4]", "value": "12.73 ± 9.75", "unit": "nm"}
    ]},
    {"substance": "TM-^Cy5HSA-Benzyl: dye-labeled HSA with TM on the surface, completely denatured, decoy-loaded and backfolded; Benzyl:HSA = 25.2 : 1", "values": [
      {"measurement": "time-dependant uptake", "setting": "[5]", "value": "extremely fast association/uptake"},
      {"measurement": "sizes (d.nm), volume distribution", "setting": "[4]", "value": "9.51 ± 2.76", "unit": "nm"},
      {"measurement": "calculated hydrodynamic radius", "setting": "[6]; in water", "value": 12, "unit": "nm"},
      {"measurement": "increase in hydrodynamic radius after incubation in blood plasma", "setting": "[6]", "value": "only a slight increase"},
      {"measurement": "increase in hydrodynamic radius after incubation in blood plasma", "setting": "[6]; listed as benzyl (decoy) loaded HSA nanocarrier", "value": "no major increase"}
    ]},
    {"substance": "TM-^Cy7.5HSA-TM: probably unloaded trimannosylated Sulfo-Cy7.5 labeled HSA (Figure 8 legend)", "values": [
      {"measurement": "sizes (d.nm), volume distribution", "setting": "[4]", "value": "10.71 ± 2.85", "unit": "nm"}
    ]}
  ]
}
